2 molecules from PubChem BioAssay AID602396 (The Scripps Research Institute Molecular Screening Center, 2012) can be followed below.

The chains behind the UniProt entries cited, without tags or fusion partners.
UniProt O00482, whole entry: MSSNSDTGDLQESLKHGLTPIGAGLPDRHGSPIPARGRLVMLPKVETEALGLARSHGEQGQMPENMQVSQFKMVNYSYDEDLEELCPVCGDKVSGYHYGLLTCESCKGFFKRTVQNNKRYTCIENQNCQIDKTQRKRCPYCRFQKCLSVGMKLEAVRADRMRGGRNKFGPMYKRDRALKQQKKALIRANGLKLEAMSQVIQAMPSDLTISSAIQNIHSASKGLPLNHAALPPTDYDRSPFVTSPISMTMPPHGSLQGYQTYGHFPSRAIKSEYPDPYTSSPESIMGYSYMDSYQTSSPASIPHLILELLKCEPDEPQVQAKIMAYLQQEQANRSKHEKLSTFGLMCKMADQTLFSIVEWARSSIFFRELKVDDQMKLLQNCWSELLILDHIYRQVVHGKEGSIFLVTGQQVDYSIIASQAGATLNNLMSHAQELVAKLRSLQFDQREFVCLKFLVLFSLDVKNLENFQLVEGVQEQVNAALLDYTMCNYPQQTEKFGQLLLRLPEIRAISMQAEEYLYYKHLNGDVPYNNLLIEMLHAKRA

The list shows a part of the results, in another mix than the full data. Active and inactive are the calls of the source.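 The calls were made as follows: active = inhibition above the mean inhibition of all tested compounds plus 3 SD (cut at about 73% in these data); inactive = the rest.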

This experiment addresses Nuclear receptor subfamily 5 group A member 2 (Homo sapiens) (UniProt O00482). Briefly: LRH-1 (NR5A2) inverse agonists, primary screen, cell-based, luminescence, HEK293T, StAR-luciferase reporter (AID 602396).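 Also: 0% = DMSO wells and 100% = reporter-only cells lacking LRH-1.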 The note with it: LRH-1 transfected, 24 h, at 3.6 µM, stronger effect = higher value. In general terms: A reporter such as luciferase makes a cellular process visible.
On to `CCC(=O)N(c1ccccc1)C1(COC)CCN(CCc2cccs2)CC1`, for which the inhibition (commonly the change of the read-out against control, counted positive when it falls) is inactive: 1.92%.
`CCC(=O)N(c1ccccc1)C1(COC)CCN(CCn2nnn(CC)c2=O)CC1`: the inhibition was inactive: 2.63%.
